# According to paper doi:10.1101/2021.12.23.473878:
# Target: TACAN lacking the entire N-terminus (K135X-D343) (human) (UniProt Q9BXJ8)
# Assay: cross-linking
substance,measurement,value
TACAN lacking the entire N-terminus (K135X-D343) (from UniProt Q9BXJ8 135-343) (domain or fragment),stoichiometry N,2
